The assay has as its target 5-hydroxytryptamine receptor 6 (Homo sapiens, UniProt P50406). The experiment in a line: Antagonist activity at human cloned 5HT6 receptor expressed in human HeLa cells by cyclase assay relative to control. In kind it is functional, cell-based.

Protein sequences, listed by entry. Tags and fused reporters are not part of them.
UniProt P50406, whole entry: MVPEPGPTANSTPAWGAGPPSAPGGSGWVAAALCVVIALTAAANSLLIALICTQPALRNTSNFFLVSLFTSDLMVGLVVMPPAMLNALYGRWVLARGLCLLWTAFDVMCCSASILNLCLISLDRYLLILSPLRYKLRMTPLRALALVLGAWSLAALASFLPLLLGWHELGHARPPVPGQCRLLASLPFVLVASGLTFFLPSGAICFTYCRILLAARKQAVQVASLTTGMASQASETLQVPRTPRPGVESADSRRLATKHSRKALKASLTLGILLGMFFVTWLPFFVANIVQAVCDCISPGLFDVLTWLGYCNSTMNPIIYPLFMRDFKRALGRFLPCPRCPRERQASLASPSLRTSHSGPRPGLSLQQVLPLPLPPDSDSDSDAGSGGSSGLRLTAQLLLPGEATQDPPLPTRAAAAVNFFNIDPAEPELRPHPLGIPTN

We go through 1 compound from ChEMBL document CHEMBL1275334, “5-Piperazinyl-3-sulfonylindazoles as potent and selective 5-hydroxytryptamine-6 antagonists” (J Med Chem, 2010).

Take `CCCn1nc(S(=O)(=O)c2cccc3ccccc23)c2cc(N3CCNCC3)ccc21`: the Imax amounted to 99%.
